Experimental data as given in US10105313B2, “Uses of rose pigment compounds” (SUNTORY HOLDINGS LIMITED, priority 2014, dated 2018).

Sequences of proteins named here, by UniProt entry; tags and fusion partners are left off. Residues count along the entry.
UniProt P00772, 27-266: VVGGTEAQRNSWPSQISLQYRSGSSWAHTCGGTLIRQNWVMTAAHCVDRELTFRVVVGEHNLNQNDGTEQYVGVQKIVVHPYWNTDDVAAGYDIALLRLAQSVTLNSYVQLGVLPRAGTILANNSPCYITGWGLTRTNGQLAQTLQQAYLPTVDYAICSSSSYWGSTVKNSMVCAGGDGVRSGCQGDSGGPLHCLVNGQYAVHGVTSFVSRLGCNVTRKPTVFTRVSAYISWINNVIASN

Molecular target: T1, elastase (Sus scrofa, UniProt P00772)
T1 construct: purchased Sigma
Experiment: Elastase inhibition test
Assay type: biochemical
Conditions: test concentration 80 μg/mL
Protocol: The blue rose petal extract, fractions thereof as products of treatment on a column (60% acetonitrile fractions), rosadelphin A1, rosacyanin A1, and tellimagrandin 1 were subjected to an elastase inhibition test that was performed by the following method.
An enzyme solution was prepared by dissolving 0.1 ml of elastase (product of Sigma) in 0.2 M Tris buffer at pH 8.0 (hereinafter referred to as a Tris buffer) to give a concentration of 0.05 units/mL and diluted 100 folds just before use. A substrate solution was prepared by dissolving N-Succinyl-Ala-Ala-Ala-p-nitroanilide (product of Sigma) in a Tris buffer to give a concentration of 4 mM. To a 96-well plate, 50 μL of a solution of each sample dissolved in 10% DMSO and 50 μL of the enzyme solution were added and after mixing them with a plate shaker, the resulting mixture was preheated at 25° C. for 10 minutes. Subsequently, 100 μL of the substrate solution was added and after mixing with a plate shaker, reaction was carried out at 25° C. for 30 minutes and immediately thereafter, the liberation of p-nitroaniline was assayed by measuring the absorbance at a wavelength of 405 nm (hereinafter designated as A405). […] The inhibitory activity of each sample was calculated in terms of the percent inhibition determined by the following formula: Percent elastase inhibition (%)=[(f−e)−{(b−a)−(d−c)}]/(f−e)×100 […]

Question: `O=S(=O)(F)Cc1ccccc1` [PMSF, phenylmethanesulfonyl fluoride, reference compound] was tested. Which “Percent elastase inhibition (%)” value (Table 7) did it give?
Answer: * Percent inhibition by 80 μg/mL PMSF: 94.1%

Question: And the “Percent elastase inhibition (%)” value (Table 8)?
Answer: * Percent inhibition by 80 μg/mL PMSF: 79.5%
